For assay [1], the species on record is Mus musculus. Nature of the assay: Tested for effective dose required to produce antinociceptive activity in mice by tail flick method.
Assay [2] is filed under the species Mus musculus. Description: Tested for effective dose required to produce antinociceptive activity in mice by tail pinch method.
The species entered for assay [3] is Mus musculus. Nature of the assay: Tested for effective dose required to produce antinociceptive activity in mice by HCl writhing method. In general terms: An intraperitoneal irritant provokes the stretching counted in writhing tests.
For assay [4], the species on record is Mus musculus. Nature of the assay: Tested for effective dose required to produce morphine antagonist activity in mice.
The species entered for assay [5] is Mus musculus. Description: Tested for effective dose required to produce sedative activity in mice by inclined screen method.

The term ED50 denotes the midpoint of the dose-response relation. Read a high ED50 as weaker potency. In the case of `CN(C(=O)Cc1ccc(Cl)c(Cl)c1)C1CCCCC1N1CCCC1` (configuration not stated), the median effective dose (ED50) in assay [1] was 2.5 mg/kg; in assay [2] it was 2.5 mg/kg; in assay [3], 2.5 mg/kg; in assay [4] it was above 100 mg/kg; in assay [5], 71 mg/kg.
Consider `CN(C)[C@@H]1CCCC[C@H]1N(C)C(=O)Cc1ccc(Cl)c(Cl)c1`, for which the median effective dose (ED50) in assay [4] and in assay [5] was above 100 mg/kg each time.

These data come from ChEMBL document CHEMBL1121943, “Benzeneacetamide amines: structurally novel non-m mu opioids” (1982).
